From PMC8506265 (Bioorganic & medicinal chemistry, 2021) come the findings set out here.

By UniProt entry, the sequences of proteins in these tests, tags left out.
UniProt P21554, whole entry: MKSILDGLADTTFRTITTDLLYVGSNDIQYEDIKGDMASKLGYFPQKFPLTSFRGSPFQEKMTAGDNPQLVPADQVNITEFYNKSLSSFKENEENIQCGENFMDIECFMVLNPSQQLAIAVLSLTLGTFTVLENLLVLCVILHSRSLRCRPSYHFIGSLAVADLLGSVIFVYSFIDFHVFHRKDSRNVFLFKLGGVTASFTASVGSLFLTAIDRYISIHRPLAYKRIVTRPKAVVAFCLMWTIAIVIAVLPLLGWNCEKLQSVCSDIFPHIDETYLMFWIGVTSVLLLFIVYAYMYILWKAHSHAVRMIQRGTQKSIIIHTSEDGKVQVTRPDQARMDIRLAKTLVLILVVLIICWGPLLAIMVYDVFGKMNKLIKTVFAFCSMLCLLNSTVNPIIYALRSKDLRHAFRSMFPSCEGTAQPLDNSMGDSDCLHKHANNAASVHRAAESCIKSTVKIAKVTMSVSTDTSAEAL

This experiment concerns the target human CB1 (Homo sapiens, UniProt P21554). In kind it is biochemical. To be noted: operational model of allosterism; probe CP55,940; no saturation at 100 µM.

As to `O=C(NCCc1ccc(N2CCCCC2)cc1)Nc1ccc(Cl)cc1` [Compound 9, 1-(4-Chlorophenyl)-3-{2-[4-(piperidin-1-yl)phenyl]ethyl}-urea], the logKb is given as −4.4 ± 0.5.
